The structures appear in SMILES notation. A value given as a limit tells only on which side of the number the result lay.

The test concerns the target T1, Lethal(3)malignant brain tumor-like protein 3 (Homo sapiens, UniProt Q96JM7).
T1 sequence (Q96JM7 whole entry): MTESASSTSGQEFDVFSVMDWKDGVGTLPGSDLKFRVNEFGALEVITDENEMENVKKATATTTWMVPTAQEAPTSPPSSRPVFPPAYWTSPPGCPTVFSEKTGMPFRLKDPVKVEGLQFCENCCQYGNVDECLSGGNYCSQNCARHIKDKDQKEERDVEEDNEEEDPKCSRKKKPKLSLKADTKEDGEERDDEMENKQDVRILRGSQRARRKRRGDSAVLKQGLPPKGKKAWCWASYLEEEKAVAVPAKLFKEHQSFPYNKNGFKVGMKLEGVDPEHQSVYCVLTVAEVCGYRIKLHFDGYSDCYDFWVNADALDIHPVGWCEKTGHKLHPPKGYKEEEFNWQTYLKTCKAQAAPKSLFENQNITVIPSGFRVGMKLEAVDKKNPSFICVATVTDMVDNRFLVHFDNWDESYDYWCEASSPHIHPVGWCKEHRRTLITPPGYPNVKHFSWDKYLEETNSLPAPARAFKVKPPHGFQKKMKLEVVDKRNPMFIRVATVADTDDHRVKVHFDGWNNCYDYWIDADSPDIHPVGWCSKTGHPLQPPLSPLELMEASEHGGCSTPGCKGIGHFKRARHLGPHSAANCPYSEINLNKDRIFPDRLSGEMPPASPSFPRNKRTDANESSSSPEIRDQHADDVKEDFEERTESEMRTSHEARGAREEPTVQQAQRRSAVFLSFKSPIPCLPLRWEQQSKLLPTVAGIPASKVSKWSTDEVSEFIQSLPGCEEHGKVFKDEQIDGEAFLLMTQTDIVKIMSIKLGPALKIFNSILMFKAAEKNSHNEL
In words: Antagonist activity at His-tagged L3MBTL3 (unknown origin) assessed as inhibition of L3MBTL3/biotinylated H4K20Me2 peptide interaction after 30 mins by AlphaScreen assay. A general note: In Alpha technology, singlet oxygen from a donor bead excites a nearby acceptor bead.

As usually defined, the IC50 is the concentration needed to halve the response being measured. Take `O=C(c1cccc(Br)c1)N1CCC(C2CCCN2)CC1` (stereo unspecified): the IC50 is greater than 30 µM.

(Values after ChEMBL document CHEMBL3217594, “Structureactivity relationships of methyl-lysine reader antagonists” (Medchemcomm, 2012).)
